Biological target: Orexin receptor type 2 (Homo sapiens, UniProt O43614)
Assay: Displacement of [125l]orexin A from human orexin 2 receptor expressed in CHO cells after 1 hr
Assay type: cell-based

Amino acid sequences for entries named in this document (tags omitted).
UniProt O43614, whole entry: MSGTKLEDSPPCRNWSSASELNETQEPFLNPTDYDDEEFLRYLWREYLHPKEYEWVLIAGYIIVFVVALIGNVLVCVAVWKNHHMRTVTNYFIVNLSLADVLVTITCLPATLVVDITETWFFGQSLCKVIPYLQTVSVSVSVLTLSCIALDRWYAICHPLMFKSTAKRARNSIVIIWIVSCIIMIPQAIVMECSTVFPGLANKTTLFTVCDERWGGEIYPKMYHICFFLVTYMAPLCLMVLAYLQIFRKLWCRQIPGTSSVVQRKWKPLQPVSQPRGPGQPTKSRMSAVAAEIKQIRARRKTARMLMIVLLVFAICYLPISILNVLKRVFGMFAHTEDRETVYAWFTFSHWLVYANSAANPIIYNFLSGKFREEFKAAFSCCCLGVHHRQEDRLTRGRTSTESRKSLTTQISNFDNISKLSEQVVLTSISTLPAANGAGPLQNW

How did the Ki turn out when `Cc1n[nH]c(C)c1[C@H](C)NC(=O)COc1cc(C(F)(F)F)c2c(-c3ccccc3)nn(C)c2n1` was run?
Its Ki is 8 nM.

Reference: ChEMBL document CHEMBL3632504, “Discovery of 1H-pyrazolo[3,4-b]pyridines as potent dual orexin receptor antagonists (DORAs)” (Bioorg Med Chem Lett, 2015)
